# Reference: US7060681B2, “Compositions and methods for use of bioactive agents derived from sulfated and sulfonated amino acids” (Ecole Polytechnique Federale de Lausanne (EPFL), priority 2001, dated 2006)
# Chains of the proteins cited; added tags and fusions are not shown. Lines headed by an entry give the natural chain unless they say otherwise; changes in a name come on top.
# UniProt P01008: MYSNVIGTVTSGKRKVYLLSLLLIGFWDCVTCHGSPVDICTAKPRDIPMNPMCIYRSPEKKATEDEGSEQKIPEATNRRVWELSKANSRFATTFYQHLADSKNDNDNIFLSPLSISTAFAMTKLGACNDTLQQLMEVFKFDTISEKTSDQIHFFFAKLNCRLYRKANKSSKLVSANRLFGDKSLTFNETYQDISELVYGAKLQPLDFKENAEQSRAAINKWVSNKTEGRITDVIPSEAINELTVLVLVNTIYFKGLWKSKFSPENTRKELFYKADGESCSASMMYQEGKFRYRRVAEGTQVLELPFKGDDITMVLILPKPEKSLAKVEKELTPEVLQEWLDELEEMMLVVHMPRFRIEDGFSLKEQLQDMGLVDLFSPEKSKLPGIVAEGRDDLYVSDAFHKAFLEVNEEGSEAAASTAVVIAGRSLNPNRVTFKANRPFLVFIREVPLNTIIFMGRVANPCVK
# Target: antithrombin III heparin-binding domain (Homo sapiens, UniProt P01008, C160A/N159A)
# Assay: Library screening with fluorescently labeled peptide representing the antithrombin III heparin-binding domain
# Conditions: in the presence of a 10 fold molar excess of heparin
substance,measurement,value
Ac-Ser(SO3)-Val-Phe-Val-Ser(SO3)-Ser(SO3)-Val-Val-Ser(SO3)-Ser(SO3)-PEGA,"Binding of ATIII heparin-binding domain peptide, second library screening (in words)",strongest binding
